Experimental data as given in US20130289520A1, “TARGETED AND LIGHT-ACTIVATED CYTOSOLIC DRUG DELIVERY” (CHILDREN'S HOSPITAL BOSTON, priority 2010, published 2013).

Sequences of proteins named here, by UniProt entry; tags and fusion partners are left off.
UniProt P08183, whole entry: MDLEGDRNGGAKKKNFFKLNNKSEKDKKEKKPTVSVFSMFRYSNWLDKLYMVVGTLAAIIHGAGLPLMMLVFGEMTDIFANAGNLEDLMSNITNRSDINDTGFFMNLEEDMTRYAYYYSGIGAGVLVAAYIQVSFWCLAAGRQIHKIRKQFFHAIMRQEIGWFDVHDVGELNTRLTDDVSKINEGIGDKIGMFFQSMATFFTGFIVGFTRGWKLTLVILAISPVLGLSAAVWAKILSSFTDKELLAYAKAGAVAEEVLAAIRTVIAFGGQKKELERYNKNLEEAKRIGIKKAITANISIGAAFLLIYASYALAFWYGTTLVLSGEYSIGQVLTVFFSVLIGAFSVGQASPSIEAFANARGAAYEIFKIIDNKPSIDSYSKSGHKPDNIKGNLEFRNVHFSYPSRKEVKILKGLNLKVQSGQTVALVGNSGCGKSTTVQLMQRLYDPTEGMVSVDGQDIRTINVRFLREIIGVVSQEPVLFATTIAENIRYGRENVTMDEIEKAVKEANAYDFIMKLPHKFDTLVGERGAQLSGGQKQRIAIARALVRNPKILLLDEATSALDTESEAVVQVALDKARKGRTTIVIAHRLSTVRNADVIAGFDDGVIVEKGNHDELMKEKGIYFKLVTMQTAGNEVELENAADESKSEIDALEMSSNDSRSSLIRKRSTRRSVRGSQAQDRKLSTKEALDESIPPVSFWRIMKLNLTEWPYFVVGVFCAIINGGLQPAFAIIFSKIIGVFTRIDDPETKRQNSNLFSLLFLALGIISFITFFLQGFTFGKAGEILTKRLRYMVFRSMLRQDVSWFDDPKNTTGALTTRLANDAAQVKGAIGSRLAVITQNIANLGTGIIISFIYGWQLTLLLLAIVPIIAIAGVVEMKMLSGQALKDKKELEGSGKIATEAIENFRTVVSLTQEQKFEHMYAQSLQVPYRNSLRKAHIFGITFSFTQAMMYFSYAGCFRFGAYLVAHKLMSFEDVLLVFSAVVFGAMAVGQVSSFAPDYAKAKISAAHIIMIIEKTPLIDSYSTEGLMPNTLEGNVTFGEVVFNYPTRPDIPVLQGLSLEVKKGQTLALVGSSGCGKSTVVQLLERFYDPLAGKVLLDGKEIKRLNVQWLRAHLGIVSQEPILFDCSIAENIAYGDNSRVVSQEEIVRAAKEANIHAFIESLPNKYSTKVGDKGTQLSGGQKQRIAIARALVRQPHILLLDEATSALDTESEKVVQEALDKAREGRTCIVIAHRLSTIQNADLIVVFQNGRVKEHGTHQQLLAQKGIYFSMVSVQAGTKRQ

Target: P-glycoprotein-GFP (Homo sapiens, UniProt P08183)
Conditions: 50 nM in D-PBS-glucose, 10 min, room temperature

With tetramethyl-rhodamine-esther [TMRE] the “substrate loading in P-glycoprotein-GFP-expressing cells” value was “complete extrusion of TMRE” and the “substrate loading in nontransfected cells” value was “high dye loading”.
